# Source: PubChem BioAssay AID793 (The Scripps Research Institute Molecular Screening Center, 2007)
# Amino acid sequences for entries named in this document (tags omitted).
# UniProt P49146, whole entry, looked up: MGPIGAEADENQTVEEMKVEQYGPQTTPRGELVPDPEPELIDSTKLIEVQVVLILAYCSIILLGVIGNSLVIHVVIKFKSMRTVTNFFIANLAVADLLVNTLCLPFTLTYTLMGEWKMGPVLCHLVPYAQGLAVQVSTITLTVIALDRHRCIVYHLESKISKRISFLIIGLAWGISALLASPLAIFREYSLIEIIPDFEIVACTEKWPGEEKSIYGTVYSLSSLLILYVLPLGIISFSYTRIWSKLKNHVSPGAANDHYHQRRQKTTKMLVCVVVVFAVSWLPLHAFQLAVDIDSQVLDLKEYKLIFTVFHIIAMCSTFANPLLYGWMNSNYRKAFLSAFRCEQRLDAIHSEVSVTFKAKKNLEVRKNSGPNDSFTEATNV
# The list shows a part of the results, in another mix than the full data. Calls of active or inactive are those of the source. Cut-off read from the data, not from the text of the source: active = inhibition above about 17%; inactive = the rest.
# Target: Neuropeptide Y receptor type 2 (Homo sapiens) (UniProt P49146)
# Assay: NPY-Y2 receptor antagonists, primary screen, cell-based (AID 793);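 note: 0% = vehicle with agonist challenge and 100% = reference antagonist with challenge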
# Settings: NPY-Y2 expressing cells, antagonist mode; at 2.7 µM; stronger effect = higher value
row,Compound,inhibition
1,O=P1(Nc2nc3ccc(Cl)cc3s2)COc2ccccc2O1 (centres undefined),inactive: 2.41%
2,CCOC(=O)NC(Sc1ccccc1)C(Cl)(Cl)Cl (centres undefined),inactive: 1.43%
3,COC(=O)c1cc2c(s1)N=C(c1ccccc1)N(C)P2(=O)N1CCOCC1 (centres undefined),inactive: 1.04%
4,CC(=O)NC(SC(=S)N(CC(C)C)CC(C)C)C(Cl)(Cl)Cl (centres undefined),inactive: 9.55%
5,CCC(=O)N1C2C3N(C(=O)CC)C1C1N(C(=O)CC)C(C(N1C(=O)CC)N3C(=O)CC)N2C(=O)CC,inactive: 5.21%
6,C(Cc1nn[nH]n1)Cc1nn[nH]n1,inactive: 7.64%
7,O=C(OC1CN2CCC1CC2)c1cccc(Cl)c1 (centres undefined),inactive: 1.82%
8,CC(=O)NC(SC(=S)N(C)C)C(Cl)(Cl)Cl (centres undefined),inactive: 0.46%
9,c1nnnn1CCn1cnnn1,inactive: 0.46%
10,O=P(Nc1nccs1)(c1ccccc1)c1ccccc1,inactive: 2.88%
11,CC(C)C(=O)NC(Sc1ccccc1)C(Cl)(Cl)Cl (centres undefined),inactive: 0.58%
12,CC(=O)N1C2C3N(C(C)=O)C1C1N(C(C)=O)C(C(N1C(C)=O)N3C(C)=O)N2C(C)=O,inactive: -1.18%
13,O=[N+]([O-])c1cccc2n[nH]nc12,inactive: 3.45%
14,CCc1nc2c(n1)c1c(non1O)c1c2no[n+]1[O-],active: 39.9%
15,CN(C)C(=O)OCCc1n(C)cc[n+]1C,inactive: 2%
16,CC1CCN(C(=O)Oc2c(Cl)cc(Cl)c3cccnc23)CC1,inactive: 6.63%
17,CCOP(=O)(Nc1ccccc1)OCC,inactive: 0.39%
18,Cc1cc(SC(NC(=O)c2ccc(F)cc2)C(Cl)(Cl)Cl)ncn1 (centres undefined),inactive: 2.88%
19,CCN(N=Nc1nonc1N)c1nonc1N,inactive: 1.21%
20,CN1CCCC(OC(=O)C(c2ccccc2)c2ccccc2)C1 (centres undefined),inactive: 4.57%
21,CC(C)CC(=O)NC(Sc1ccc(Cl)cc1)C(Cl)(Cl)Cl (centres undefined),inactive: -0.3%
22,Oc1ccccc1CNc1ccccn1,inactive: 2.71%
23,Cc1c2non([O-])c-2c(C)[n+](=O)[n+]1[O-],inactive: -1.6%
24,O=C(NC(Sc1ccncn1)C(Cl)(Cl)Cl)c1ccccc1 (centres undefined),inactive: 2.45%
25,O=C(OC1CN2CCC1CC2)C12CC3CC(CC(C3)C1)C2 (centres undefined),inactive: 7.98%

row,Compound,inhibition
1,Cc1c2c(nc3ccccc13)SC(C(Cl)Cl)C2 (centres undefined),inactive: 2.19%
2,Cc1ccc2nc3c(c(C)c2c1)CC(C(Cl)Cl)S3 (centres undefined),inactive: 4.83%
3,CCN(CC)C(=S)SC(NC=O)C(Cl)(Cl)Cl (centres undefined),inactive: 0.75%
4,O=[N+]([O-])c1cc([N+](=O)[O-])c(-c2ccn[nH]2)s1,inactive: 3.8%
5,ClCCSc1nnc(-c2cccnc2)o1,inactive: 1.51%
6,Cc1cc(SC(NC(=O)c2ccccc2)C(Cl)(Cl)Cl)nc(C(C)C)n1 (centres undefined),inactive: 1.51%
7,O=C(COc1ccccc1)OC1CN2CCC1CC2 (centres undefined),inactive: 0.89%
8,COP1(=S)c2c(C)nn(CCC#N)c2N=C(c2ccc(F)cc2)N1C (centres undefined),inactive: 1.62%
9,CCC(C)N(CC(C)C)C(=S)SC(NC(C)=O)C(Cl)(Cl)Cl (centres undefined),inactive: 2.38%
10,Clc1n[nH]nc1-c1nn[nH][15n]1,inactive: -2.02%
11,O=P1(Nc2ccccn2)COc2ccccc2OC1,inactive: 0.17%
12,CC1(CBr)Cn2c(nc3ccccc3c2=O)S1 (centres undefined),inactive: 1.19%
13,Cc1nn(-c2ccccc2)c2c1P(=O)(N1CCOCC1)N(C)C(c1ccccc1)=N2 (centres undefined),inactive: 3.37%
14,O=P1(Nc2ccc(Br)cn2)COc2ccccc2OC1,inactive: 0.51%
15,Cc1ccc(OCC(=O)OC2CN3CCC2CC3)cc1 (centres undefined),inactive: 3.9%
16,O=P1(Nc2ncccn2)COc2ccccc2OC1,inactive: 0.47%
17,CCOP1(=S)c2c(C)nn(CCC#N)c2N=C(c2ccccc2F)N1C (centres undefined),inactive: 3.4%
18,O=P(Nc1nccs1)(c1ccccc1)c1nc2ccccc2s1 (centres undefined),inactive: 3.27%
19,O=[N+]([O-])c1ccc2c(c1)nnn2O,inactive: 3.07%
20,CCOP1(=S)c2c(C)nn(CCC#N)c2N=C(c2ccc(F)cc2)N1C (centres undefined),inactive: -1.25%
21,Cc1cccc(OCC(=O)OC2CN3CCC2CC3)c1 (centres undefined),inactive: -1.15%
22,COc1cc(C2NCCC3(OCCO3)C2(C)C)cc(OC)c1OC (centres undefined),inactive: 2.24%
23,CCOP(=O)(Nc1cccc2ccccc12)OCC,inactive: 2.16%
24,Cc1ccc(NCCc2c([N+](=O)[O-])cc([N+](=O)[O-])cc2[N+](=O)[O-])cc1,inactive: -3.71%
